# Source: patent EP1016405A2, “Arylating medicaments” (Radopath Pharmaceuticals International Limited, priority 1993, dated 1994)
# System: MAC15A (murine adenocarcinoma colon)
# Assay: Anti-tumour activity against MAC15A ascites tumour, survival T/C%
# Format: in vivo, mice
# Details: median survival, test vs solvent control, 100 mg kg^-1 ip per day
molecule,measurement,setting,value
O=[N+]([O-])c1cc([N+](=O)[O-])c(S(=O)(=O)O)c([N+](=O)[O-])c1,T/C%,"schedule days 1,2,3,4,5",188%
O=[N+]([O-])c1ccc([N+](=O)[O-])cc1,T/C%,"schedule days 1,2",200%
"1-flouro-2,4-dinitrobenzene",T/C%,schedule day 1,62.5^b %

# Marks after values point to notes of the source that are not given here.
